{"sequences": {"note": "The chains behind the UniProt entries cited, without tags or fusion partners.", "UniProt P21554, whole entry": "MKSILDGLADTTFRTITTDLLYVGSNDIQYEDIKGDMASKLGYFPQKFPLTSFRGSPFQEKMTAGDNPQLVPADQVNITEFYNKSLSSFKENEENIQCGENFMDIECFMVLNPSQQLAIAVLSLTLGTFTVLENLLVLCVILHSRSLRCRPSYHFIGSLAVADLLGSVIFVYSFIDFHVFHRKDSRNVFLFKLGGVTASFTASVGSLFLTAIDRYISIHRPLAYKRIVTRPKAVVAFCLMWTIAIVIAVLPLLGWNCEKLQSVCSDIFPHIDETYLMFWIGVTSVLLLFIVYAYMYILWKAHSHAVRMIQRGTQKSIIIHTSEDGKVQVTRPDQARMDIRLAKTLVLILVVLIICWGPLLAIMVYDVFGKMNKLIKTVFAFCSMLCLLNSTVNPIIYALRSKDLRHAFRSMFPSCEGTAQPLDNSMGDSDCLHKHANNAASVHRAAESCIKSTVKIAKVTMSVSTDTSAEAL"}, "source": "ChEMBL document CHEMBL4020829", "about": "“Structure-Activity Relationships and Computational Investigations into the Development of Potent and Balanced Dual-Acting Butyrylcholinesterase Inhibitors and Human Cannabinoid Receptor 2 Ligands with Pro-Cognitive in Vivo Profiles” (J Med Chem, 2018)", "key": {"[1]": {"molecular_target": "T1, Cannabinoid receptor 1 (Homo sapiens, UniProt P21554)", "experiment": "biochemical"}, "[2]": {"molecular_target": "T1, Cannabinoid receptor 1", "experiment": "biochemical", "format": "cell-based"}}}
{"smiles": "Cc1ccc(Cn2nc(C(=O)N[C@@H]3C(C)(C)[C@@H]4CC[C@@]3(C)C4)cc2-c2ccc(Cl)c(C)c2)cc1", "values": [{"measurement": "Ki", "setting": "[1]", "result": 254, "unit": "nM"}, {"measurement": "IC50", "setting": "[2]", "result": 794, "unit": "nM"}, {"measurement": "Ki", "setting": "[2]", "result": 687, "unit": "nM"}]}
